Data from patent US20220144934A1 (Janssen / Centocor, published 2022).

Chains of the proteins cited; added tags and fusions are not shown. Residues count along the entry.
UniProt P01375, 77-233 limits assumed: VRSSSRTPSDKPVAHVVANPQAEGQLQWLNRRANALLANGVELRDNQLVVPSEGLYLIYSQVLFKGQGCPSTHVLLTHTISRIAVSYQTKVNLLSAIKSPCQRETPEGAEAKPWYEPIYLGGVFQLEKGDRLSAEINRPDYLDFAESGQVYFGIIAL

Target: T1, recombinant human TNFα (human, UniProt P01375 77-233, 125I-labeled in the receptor-blocking assay ; 125I-labelled (positions not stated) only in the receptor-blocking assay; soluble homotrimer of this 17 kD subunit)
T1 construct: also called huTNFα; soluble human tumor necrosis factor alpha
Test: competition radioligand assay: cA2 spiked into anti-IL-18 control supernatant, preincubated with 5 ng/ml 125I-TNFα, then 125I-TNFα bound to plate-coated p55-sf2 (TNF receptor/IgG fusion) counted as cpm

IC50 (read off the curve): ~10 ng/mL
B1: chimeric antibody cA2 (antibody, V domains shown)
VH: EVKLEESGGGLVQPGGSMKLSCVASGFIFSNHWMNWVRQSPEKGLEWVAEIRSKSINSATHYAESVKGRFTISRDDSKSAVYLQMTDLRTEDTGVYYCSRNYYGSTYDYWGQGTTLTVS
VL: DILLTQSPAILSVSPGERVSFSCRASQFVGSSIHWYQQRTNGSPRLLIKYASESMSGIPSRFSGSGSGTDFTLSINTVESEDIADYYCQQSHSWPFTFGSGTNLEVK
